Type in all cases: biochemical
The target of assay [1] is T1, JAK1 (Homo sapiens (Human), UniProt P23458). In words: Enzyme assay, JAK1 (Assay Example^b 1). To be noted: ATP 100 μM.
The target of assay [2] is T2, Tyk2 (Homo sapiens (Human), UniProt P29597). In words: Enzyme assay, Tyk2 (Assay Example^b 1). To be noted: ATP 100 μM.
In assay [3] the target is T1, JAK1. The experiment in a line: Enzyme assay (LANCE Ultra ULight-JAK1 Peptide), JAK1. To be noted: ATP 100 μM.
Another assay deals with JAK3 (Homo sapiens (Human), UniProt P52333). The experiment in a line: Enzyme assay (LANCE Ultra ULight-JAK1 Peptide), JAK3.
Assay [4] deals with T2, Tyk2. In words: Enzyme assay (LANCE Ultra ULight-JAK1 Peptide), Tyk2. Particulars: ATP 100 μM.

The chains behind the UniProt entries cited, without tags or fusion partners. Where a name states a change or a piece, a line headed by the entry shows the natural chain unless it says otherwise.
UniProt P23458: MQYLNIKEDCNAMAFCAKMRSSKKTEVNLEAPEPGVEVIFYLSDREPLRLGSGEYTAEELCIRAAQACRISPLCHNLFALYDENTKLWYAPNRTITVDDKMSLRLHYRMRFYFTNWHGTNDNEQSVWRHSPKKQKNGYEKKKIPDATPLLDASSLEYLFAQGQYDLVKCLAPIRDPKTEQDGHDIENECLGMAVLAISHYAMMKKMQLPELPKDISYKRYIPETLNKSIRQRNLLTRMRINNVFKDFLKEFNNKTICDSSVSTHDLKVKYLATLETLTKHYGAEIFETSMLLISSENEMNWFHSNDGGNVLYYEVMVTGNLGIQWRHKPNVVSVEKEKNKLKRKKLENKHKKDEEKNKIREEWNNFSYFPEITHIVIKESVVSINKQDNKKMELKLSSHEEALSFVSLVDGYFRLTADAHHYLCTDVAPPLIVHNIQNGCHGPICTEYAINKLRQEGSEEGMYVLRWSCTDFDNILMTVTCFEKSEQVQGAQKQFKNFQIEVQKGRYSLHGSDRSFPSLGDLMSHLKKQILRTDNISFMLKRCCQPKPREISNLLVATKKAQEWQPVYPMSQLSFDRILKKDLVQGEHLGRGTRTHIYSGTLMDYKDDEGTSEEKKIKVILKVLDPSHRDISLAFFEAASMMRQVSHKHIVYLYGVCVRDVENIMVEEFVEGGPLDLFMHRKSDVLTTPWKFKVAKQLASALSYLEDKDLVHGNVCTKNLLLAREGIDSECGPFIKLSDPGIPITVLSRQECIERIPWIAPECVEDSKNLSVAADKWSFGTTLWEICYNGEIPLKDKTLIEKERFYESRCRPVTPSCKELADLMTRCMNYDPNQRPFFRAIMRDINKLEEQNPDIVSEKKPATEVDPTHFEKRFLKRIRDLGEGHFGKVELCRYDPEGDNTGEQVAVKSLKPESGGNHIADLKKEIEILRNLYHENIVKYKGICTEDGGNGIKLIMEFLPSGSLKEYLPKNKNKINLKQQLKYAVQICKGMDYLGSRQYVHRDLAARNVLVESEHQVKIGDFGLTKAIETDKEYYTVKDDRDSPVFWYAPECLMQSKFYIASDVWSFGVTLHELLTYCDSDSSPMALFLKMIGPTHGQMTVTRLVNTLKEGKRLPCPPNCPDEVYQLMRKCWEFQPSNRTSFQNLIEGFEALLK
UniProt P29597: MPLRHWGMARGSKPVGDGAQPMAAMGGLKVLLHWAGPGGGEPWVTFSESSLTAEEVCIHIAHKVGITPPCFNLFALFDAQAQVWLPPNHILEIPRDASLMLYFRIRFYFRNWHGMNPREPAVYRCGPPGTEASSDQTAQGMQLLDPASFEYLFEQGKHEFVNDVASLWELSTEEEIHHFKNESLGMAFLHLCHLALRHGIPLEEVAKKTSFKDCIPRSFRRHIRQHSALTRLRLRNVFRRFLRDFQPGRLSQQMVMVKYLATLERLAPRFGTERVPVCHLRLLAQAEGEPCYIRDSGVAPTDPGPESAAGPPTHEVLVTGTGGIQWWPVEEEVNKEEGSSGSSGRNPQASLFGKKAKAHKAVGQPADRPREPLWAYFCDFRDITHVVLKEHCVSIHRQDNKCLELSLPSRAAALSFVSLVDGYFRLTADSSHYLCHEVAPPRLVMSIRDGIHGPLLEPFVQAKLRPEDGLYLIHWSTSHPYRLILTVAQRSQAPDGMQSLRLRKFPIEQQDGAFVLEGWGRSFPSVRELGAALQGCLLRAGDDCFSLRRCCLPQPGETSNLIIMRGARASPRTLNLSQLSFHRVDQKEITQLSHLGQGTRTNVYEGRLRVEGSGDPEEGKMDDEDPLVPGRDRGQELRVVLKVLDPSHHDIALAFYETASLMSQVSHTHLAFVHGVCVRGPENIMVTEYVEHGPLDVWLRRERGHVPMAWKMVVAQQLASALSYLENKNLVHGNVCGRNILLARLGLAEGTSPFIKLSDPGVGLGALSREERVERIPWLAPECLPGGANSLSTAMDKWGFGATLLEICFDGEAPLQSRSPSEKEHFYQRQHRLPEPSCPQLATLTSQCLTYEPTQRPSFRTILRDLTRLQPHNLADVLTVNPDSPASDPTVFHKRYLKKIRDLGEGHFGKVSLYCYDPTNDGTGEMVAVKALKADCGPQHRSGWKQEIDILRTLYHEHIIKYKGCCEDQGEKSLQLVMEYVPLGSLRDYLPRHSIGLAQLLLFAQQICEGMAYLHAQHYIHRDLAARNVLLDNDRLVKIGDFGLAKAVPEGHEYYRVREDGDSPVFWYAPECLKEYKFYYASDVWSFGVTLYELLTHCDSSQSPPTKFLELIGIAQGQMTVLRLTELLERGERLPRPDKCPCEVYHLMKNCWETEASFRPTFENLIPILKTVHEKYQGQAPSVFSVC
UniProt P52333: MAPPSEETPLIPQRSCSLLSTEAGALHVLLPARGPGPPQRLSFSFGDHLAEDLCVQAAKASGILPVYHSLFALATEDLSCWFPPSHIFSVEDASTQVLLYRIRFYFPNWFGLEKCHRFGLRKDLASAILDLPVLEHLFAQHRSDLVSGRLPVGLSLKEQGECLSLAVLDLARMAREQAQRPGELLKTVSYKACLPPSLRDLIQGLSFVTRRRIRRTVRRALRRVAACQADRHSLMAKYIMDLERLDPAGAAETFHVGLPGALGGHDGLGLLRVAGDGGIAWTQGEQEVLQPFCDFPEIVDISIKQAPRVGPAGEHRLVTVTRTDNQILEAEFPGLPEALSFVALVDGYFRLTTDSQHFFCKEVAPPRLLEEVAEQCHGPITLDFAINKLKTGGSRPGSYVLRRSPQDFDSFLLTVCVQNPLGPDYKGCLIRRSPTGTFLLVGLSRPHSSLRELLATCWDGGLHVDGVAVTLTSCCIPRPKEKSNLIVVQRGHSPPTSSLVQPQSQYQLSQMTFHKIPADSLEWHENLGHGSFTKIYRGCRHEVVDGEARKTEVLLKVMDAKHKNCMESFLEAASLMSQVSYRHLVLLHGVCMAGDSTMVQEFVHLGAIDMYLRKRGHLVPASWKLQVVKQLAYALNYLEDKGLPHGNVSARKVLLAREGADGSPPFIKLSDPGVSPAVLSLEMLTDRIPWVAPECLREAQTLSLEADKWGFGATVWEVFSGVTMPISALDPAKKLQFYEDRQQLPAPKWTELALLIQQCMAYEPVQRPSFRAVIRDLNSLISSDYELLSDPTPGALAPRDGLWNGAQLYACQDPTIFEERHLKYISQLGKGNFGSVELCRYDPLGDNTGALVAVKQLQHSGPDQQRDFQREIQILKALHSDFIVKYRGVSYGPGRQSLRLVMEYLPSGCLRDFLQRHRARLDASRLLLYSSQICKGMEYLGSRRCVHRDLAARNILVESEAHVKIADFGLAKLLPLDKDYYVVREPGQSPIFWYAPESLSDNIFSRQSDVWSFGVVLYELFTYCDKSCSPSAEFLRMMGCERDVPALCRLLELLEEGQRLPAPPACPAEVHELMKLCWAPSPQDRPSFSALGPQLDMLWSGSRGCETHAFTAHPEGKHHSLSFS

SMILES strings stand for the structures.

Consider `C[C@@H]1CCN(Cc2cccc(F)c2F)C[C@@H]1n1ccc(=O)c2cnc3[nH]ccc3c21` (racemic) [Synthetic Example^b 6a, rac-1-[(3R,4R)-1-(2,3-Difluorobenzyl)-4-methylpiperidin-3-yl]-1H-pyrrolo[2,3-h][1,6]naphthyridin-4(7H)-one], for which the IC50 at JAK1 [1] amounted to 0.027 µM; against Tyk2 [2], 0.63 µM.
Consider `N#Cc1ccc(CN2CCC(c3nnn4cnc5[nH]ccc5c34)CC2)cc1` [Ex 210], for which the IC50 at JAK1 [3] worked out at 0.0047 µM; against JAK3 it was 0.077 µM; on Tyk2 [4] it was 0.29 µM.
On JAK1 [1], `C[C@@H]1CCN(C)C[C@@H]1n1ccc(=O)c2cnc3[nH]ccc3c21` (racemic) [Synthetic Example^b 6b, rac-1-[(3R,4R)-1,4-Dimethylpiperidin-3-yl]-1H-pyrrolo[2,3-h][1,6]naphthyridin-4(7H)-one] yielded an IC50 of 0.19 µM.

The values above are taken from patent US9556187B2, “Substituted pyrrolo[3′,2′:5,6]pyrido[4,3-d]pyrimidines and JAK inhibitors comprising the same” (priority 2011, dated 2017).
